Test results: patent US20140051601A1, “METABOLOMIC PROFILING OF CANCER” (METABOLAN INC., priority 2006, published 2014)

Legend:
[1] = test system: PrEC cells; experiment: Sarcosine-induced invasion after pre-treatment with EGFR inhibitor; type: cell-based; settings: 50 μg/ml
[2] = test system: RWPE cells; experiment: as above; type: cell-based; settings: 50 μg/ml

C225: antibody-mediated inhibition of EGFR activity
block of sarcosine induced invasion [1]: completely blocked | block of sarcosine induced invasion [2]: completely blocked
